± gives the standard deviation of the averaged measurements. This is a selection; strong and weak results do not stand in their true shares.
Each compound was assayed on Serratia marcescens K904 PosmB-luxCDABE reporter (pMQ747) (assay: PosmB-lux reporter fold induction (RLU/OD600 relative to no-compound control), highest over Biolog concentrations; higher = stronger reporter activation). Conditions: Biolog plate: PM18; well positions: D5-8; ΔrcsB mutant CMS5177; 4 h.
Procedure: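 Serratia marcescens K904 (wild type) or its isogenic ΔrcsB mutant, carrying the Rcs-dependent PosmB-luxCDABE reporter plasmid pMQ747, was grown in LB at OD600 0.1 in Biolog Phenotype MicroArray plates PM11-20 for 4 h at 30-32°C. Each compound is present at 3-4 proprietary concentrations (not stated); per the Fig. S1 legend the value given is the highest fold over those wells. Three independent trials.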

Which “PosmB-lux reporter fold induction” value does the source give for `[O-][Br+2]([O-])O` [sodium bromate] here?
The value was 0.962 ± 0.62.
